In BindingDB's records for doi:10.1038/304065a0 (Hoechst Pharmaceutical Research Laboratories, 1983) one finds Ki data, which are given here for 2 compounds.

Chains of the proteins cited; added tags and fusions are not shown.
UniProt P47747, whole entry: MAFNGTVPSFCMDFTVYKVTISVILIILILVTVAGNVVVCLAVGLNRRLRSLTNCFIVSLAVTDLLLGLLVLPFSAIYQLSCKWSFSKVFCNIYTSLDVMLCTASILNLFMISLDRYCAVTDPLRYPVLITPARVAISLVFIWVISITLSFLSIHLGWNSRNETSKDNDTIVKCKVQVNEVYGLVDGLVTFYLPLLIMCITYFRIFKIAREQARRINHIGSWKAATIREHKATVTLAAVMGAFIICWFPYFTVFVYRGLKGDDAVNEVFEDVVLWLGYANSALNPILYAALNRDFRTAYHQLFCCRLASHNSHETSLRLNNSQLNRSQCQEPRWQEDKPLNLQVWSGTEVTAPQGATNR

For orientation: pKi means the Ki on a negative log10 scale, so that one unit is a factor of ten. A low value points to a large Ki.

pKi: −log10 of the molar value.

This test addresses Histamine H2 receptor (Cavia porcellus, UniProt P47747).

`CNC(=NCCSCc1csc(N=C(N)N)n1)NC#N` [[3H]tiotidine] had a pKi of 7.47.

The compound `CN/C(=N/CCSCc1nc[nH]c1C)NC#N` [N-methyl-N-[2-(5-methyl-1H-4-imidazolylmethylsulfanyl)ethyl]-1-cyanoiminomethanediamine] showed a negative-log Ki (pKi) of 6.33.
